{"source": "ChEMBL document CHEMBL4364246", "about": "“Synthesis and biological evaluation of 5-aminoethyl benzophenanthridone derivatives as DNA topoisomerase IB inhibitors” (Eur J Med Chem, 2019)", "tested_on": "HCT-116", "test": "Resistance ratio of GI50 for human HCT116 cells expressing siTOP1 to GI50 for human HCT116 cells by MTT assay", "type": "functional"}
{"smiles": "CNCCn1c(=O)c2cc(OC)c(OC)cc2c2ccc3cc4c(cc3c21)OCO4", "values": [{"measurement": "Ratio", "value": 8.9}]}
